The assay addresses Estrogen receptor (Homo sapiens, UniProt P03372). Conditions: mcf7; call rule not given here.

The chains behind the UniProt entries cited, without tags or fusion partners.
UniProt P03372, whole entry: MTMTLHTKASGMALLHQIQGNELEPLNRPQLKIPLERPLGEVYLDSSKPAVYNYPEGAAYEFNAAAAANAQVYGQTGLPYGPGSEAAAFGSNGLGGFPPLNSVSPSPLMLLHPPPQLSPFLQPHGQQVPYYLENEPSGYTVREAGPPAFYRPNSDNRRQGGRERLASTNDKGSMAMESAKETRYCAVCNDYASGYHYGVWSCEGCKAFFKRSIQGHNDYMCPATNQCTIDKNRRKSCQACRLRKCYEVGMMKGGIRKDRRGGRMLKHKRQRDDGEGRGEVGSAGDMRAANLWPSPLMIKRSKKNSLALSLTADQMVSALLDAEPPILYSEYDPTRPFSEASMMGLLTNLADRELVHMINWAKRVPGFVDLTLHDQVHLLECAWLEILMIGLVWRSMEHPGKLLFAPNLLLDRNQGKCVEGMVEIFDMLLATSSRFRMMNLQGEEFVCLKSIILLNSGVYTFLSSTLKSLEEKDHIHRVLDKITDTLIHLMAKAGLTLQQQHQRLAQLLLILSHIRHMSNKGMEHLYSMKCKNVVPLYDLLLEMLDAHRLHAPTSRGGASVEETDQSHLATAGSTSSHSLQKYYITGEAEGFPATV

`C[C@]12CC[C@@H]3c4ccc(O)cc4C[C@@H](CCCCCCCCC[S+]([O-])CCCC(F)(F)C(F)(F)F)[C@H]3[C@@H]1CC[C@@H]2O` (stereo partly specified) [FULVESTRANT]: the EC50 entry is reported as “Not Active”.

These data come from ChEMBL document CHEMBL1132758, “Synthesis and estrogenic activities of novel 7-thiosubstituted estratriene derivatives” (Bioorg Med Chem Lett, 2000).
